Measurements reported in US20080125453A1, “PHENYLEPHRINE TANNATE, PYRILAMINE TANNATE AND DEXTROMETHORPHAN TANNATE SALTS IN PHARMACEUTICAL COMPOSITIONS” (TIBER LABORATORIES, LLC, priority 2001, published 2008).

Assay type: physicochemical
Details: purified water; stated as 'will result', not carried out
Description: The salt of the active ingredient, corresponding to an amount of free base present in a final batch size of 1 kg was dissolved in 100 ml of purified water. 120 ml of purified water was placed in a 600 ml beaker and stirred. While stirring, 3 g of MAS was added in small portions to obtain a dispersion. The amount of MAS used is a part of the total amount of MAS to be used in the formulation. Once the MAS was dispersed, tannic acid was added to the mixture and stirred to form a uniform dispersion. Three different batches of the MAS/tannic acid dispersion in purified water were prepared for each active. In the three batches, the amount of tannic acid used in the batch may vary from an amount equal to that of the free base, to two time to three times that of the free base present in the initial salt solution.
The salt solution was then added in small portions, under light stirring, to the MAS/Tannic acid dispersion. After all of the salt solution was added, the volume was made up to 250 ml with purified water and stirring was continued for a period of 10 minutes.
The MAS was used in this step to serve as an adherent or a solid support for the tannic acid molecules to facilitate the conversion process.

SMILES: COc1ccc2c(c1)[C@]13CCCC[C@@H]1[C@H](C2)N(C)CC3 [dextromethorphan, d-3-methoxy-N-methylmorphinan]
- precipitate formation of the tannate salt (expected): copious amounts of precipitate
